{
  "source": "patent US20070270462A1",
  "about": "“8-hydroxyquinoline compounds for treating a polyglutamine (polyQ)-expansion disease” (priority 2005, published 2007)",
  "tested_on": "aggregated Htt",
  "assay": "Immunohistochemistry with anti-Htt aggregate Ab EM48 in R6/2 mouse brain",
  "format": "in vivo",
  "conditions": "R6/2 mice, oral CQ 30 mg/kg/day, 11-week old, striatum and motor cortex",
  "description": "A colony of transgenic mice strain R6/2 that is heterozygous for htt exon1 (containing 145 CAG repeats) was maintained, with founders originating and available from The Jackson Laboratory (Bar Harbor, Me., USA). Male transgenic R6/2 mice were bred with background strain (B6CBAFI/J) females. Genotyping was done according to Hockly et al, Brain Res Bull 61, 469-479, 2003. CQ in water was orally administered to mice at 30 mg/kg/day starting at 3 weeks of age and continued until the mice were deceased or sacrificed for tissues. Littermate R6/2 mice were gavaged with water vehicle alone. At the end of CQ treatment mice were anesthetized and transcardially perfused with PBS followed by 4% v/v paraformaldehyde. Blood glucose levels were determined after at least 8 hrs of fasting in 11-week old mice (n=6 for wild-type, n=4 for vehicle-treated R6/2, n=6 for CQ-treated R6/2 littermates) using a 2300 STAT Plus glucose analyzer (YSI, Yellowsonte, Ohio, USA). Fasting blood insulin levels in animals fasted for 8 hrs were measured using an Ultra Sensitive Rat Insulin ELISA Kit (Crystal Chem, Inc., Downers Grove, Ill., USA) according to manufacturer's instructions. […]\nIt was then determined if CQ would also reduce mutant Htt accumulation in vivo using the HD transgenic mouse model R6/2.",
  "data": [
    {"smiles": "Oc1c(I)cc(Cl)c2cccnc12", "note": "[CQ, 5-chloro-7-iodo-8-hydroxy-quinoline]", "values": [
      {"measurement": "accumulation of aggregated Htt by EM48 immunohistochemistry", "result": "inhibited the accumulation of aggregated Htt in both the striatum and motor cortex"}
    ]}
  ]
}
